Results published in PMC11079024, “Identification of a family of species-selective complex I inhibitors as potential anthelmintics” (Nature Communications, 2024).
Several values for one entry are separate records, joined by “and”; a condition that tells them apart may be missing. Equal values may be shown once. Read-outs that look alike come from different tables or passages of the source.

Protein sequences, listed by entry. Tags and fused reporters are not part of them. Lines headed by an entry give the natural chain unless they say otherwise; changes in a name come on top. Residues count along the entry.
UniProt P24887: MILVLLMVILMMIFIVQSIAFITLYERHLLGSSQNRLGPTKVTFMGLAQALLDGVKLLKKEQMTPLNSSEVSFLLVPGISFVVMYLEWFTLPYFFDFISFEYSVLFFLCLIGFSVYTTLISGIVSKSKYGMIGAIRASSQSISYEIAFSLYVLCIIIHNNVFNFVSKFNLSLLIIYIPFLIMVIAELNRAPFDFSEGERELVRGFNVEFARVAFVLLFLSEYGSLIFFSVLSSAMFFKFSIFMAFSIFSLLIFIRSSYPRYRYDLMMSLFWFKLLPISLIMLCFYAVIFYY
UniProt Q93873, 31-482: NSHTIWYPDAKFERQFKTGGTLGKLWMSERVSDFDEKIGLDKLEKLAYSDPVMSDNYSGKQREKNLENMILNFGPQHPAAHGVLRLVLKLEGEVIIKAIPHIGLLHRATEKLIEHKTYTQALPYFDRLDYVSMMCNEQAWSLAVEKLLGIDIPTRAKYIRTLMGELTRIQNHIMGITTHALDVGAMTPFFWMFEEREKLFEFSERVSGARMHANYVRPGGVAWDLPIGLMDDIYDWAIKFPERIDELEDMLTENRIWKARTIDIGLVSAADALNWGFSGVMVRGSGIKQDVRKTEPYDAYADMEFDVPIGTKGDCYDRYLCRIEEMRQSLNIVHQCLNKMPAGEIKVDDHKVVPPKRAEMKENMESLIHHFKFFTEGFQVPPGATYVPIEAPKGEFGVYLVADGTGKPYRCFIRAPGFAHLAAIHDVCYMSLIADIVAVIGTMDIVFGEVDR
UniProt Q94360, 17-199: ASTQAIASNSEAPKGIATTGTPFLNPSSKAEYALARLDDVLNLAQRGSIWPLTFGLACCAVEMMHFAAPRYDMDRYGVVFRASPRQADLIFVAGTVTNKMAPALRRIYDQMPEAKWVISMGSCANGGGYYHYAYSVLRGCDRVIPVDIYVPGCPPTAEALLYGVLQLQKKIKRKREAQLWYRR
UniProt P03887, whole entry: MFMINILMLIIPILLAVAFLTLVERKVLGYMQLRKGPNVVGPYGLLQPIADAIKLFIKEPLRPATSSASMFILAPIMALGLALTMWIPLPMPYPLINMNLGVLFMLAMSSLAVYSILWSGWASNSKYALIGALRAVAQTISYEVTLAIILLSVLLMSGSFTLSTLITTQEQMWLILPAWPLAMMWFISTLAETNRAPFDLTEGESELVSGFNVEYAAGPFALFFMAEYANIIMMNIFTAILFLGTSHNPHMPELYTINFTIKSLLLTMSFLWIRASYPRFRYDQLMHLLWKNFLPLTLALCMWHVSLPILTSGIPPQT
UniProt P17694, 34-463: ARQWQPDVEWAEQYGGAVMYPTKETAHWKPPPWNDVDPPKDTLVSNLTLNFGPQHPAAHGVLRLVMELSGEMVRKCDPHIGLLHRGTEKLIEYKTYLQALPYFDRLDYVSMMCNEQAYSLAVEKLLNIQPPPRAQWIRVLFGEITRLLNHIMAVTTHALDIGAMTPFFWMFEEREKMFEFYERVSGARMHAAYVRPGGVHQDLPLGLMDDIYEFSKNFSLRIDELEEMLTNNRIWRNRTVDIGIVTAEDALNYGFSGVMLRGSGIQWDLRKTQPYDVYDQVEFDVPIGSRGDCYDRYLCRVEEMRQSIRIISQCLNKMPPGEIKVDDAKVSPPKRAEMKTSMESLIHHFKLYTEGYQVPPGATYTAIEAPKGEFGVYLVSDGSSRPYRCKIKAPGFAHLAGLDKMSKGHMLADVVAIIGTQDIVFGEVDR
UniProt P42026, 38-216: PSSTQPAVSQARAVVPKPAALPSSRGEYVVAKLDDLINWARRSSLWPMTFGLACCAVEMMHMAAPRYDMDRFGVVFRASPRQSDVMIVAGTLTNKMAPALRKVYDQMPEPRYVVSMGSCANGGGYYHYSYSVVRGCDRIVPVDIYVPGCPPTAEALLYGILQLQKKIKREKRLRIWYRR
UniProt P03888: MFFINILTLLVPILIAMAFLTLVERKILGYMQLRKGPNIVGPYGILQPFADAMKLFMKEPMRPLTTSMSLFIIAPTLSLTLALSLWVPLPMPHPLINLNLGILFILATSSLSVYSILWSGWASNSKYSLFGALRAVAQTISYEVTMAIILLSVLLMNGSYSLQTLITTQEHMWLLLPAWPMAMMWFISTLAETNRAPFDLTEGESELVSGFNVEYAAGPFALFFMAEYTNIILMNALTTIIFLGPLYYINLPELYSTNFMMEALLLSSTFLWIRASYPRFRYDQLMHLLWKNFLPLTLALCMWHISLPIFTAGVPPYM
UniProt Q91WD5, 34-463: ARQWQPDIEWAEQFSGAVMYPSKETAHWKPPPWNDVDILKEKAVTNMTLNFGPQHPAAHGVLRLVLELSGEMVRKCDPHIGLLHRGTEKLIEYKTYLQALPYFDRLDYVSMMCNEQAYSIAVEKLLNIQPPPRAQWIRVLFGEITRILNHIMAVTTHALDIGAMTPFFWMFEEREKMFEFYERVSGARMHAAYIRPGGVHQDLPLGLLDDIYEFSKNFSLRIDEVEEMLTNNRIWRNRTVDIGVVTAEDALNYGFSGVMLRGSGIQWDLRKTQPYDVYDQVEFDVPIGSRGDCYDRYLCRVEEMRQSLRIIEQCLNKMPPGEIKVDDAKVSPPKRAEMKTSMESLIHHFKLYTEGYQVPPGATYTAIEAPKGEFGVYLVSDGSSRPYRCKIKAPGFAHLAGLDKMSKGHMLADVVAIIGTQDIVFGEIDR
UniProt Q9DC70, 36-224: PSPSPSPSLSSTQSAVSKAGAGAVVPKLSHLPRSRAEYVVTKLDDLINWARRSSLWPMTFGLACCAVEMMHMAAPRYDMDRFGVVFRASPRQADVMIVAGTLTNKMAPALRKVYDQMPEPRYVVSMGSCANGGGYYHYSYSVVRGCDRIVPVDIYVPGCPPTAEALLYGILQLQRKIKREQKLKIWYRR

Tests used:
L1 C. briggsae (AF16) = assay: Liquid development and viability assay, C. briggsae; format: cell-based, Caenorhabditis briggsae; conditions: liquid growth and development assay, 1 = like DMSO control, 0 = death
L1 P. pacificus (PS312) = assay: Liquid development and viability assay, P. pacificus; format: cell-based, Pristionchus pacificus; conditions: liquid growth and development assay, 1 = like DMSO control, 0 = death
L1 wild-type C. elegans = conditions: for KCN survival assay value relative to DMSO control, Mean: mean of replicates; for KCN survival assay value relative to DMSO control, individual replicate: single replicate
in vitro = conditions: human, HEK293 cells (Flp-In-293)
[1] = molecular target: C. elegans (N2) complex I (NADH:ubiquinone oxidoreductase) (Caenorhabditis elegans, UniProt P24887+Q93873+Q94360); assay: biochemical; format: biochemical; conditions: for in vitro complex I activity relative to solvent control, individual replicate: wild-type C. elegans; for in vitro complex I activity relative to solvent control, individual replicate / percent (%) in vitro complex I activity relative to solvent control: single replicate; for percent (%) in vitro complex I activity relative to solvent control: wild-type C. elegans mitochondria
[2] = molecular target: B. taurus (heart) complex I (Bos taurus, UniProt P03887+P17694+P42026); format: biochemical; conditions: for percent (%) in vitro complex I activity relative to solvent control: B. taurus (heart) mitochondria, single replicate
[3] = molecular target: M. musculus (heart) complex I (Mus musculus, UniProt P03888+Q91WD5+Q9DC70); format: biochemical; conditions: for M. musculus: C. elegans IC50 Fold Change: heart mitochondria; for percent (%) in vitro complex I activity relative to solvent control: M. musculus (heart) mitochondria, single replicate

Cc1ccccc1OCCCCn1cnc2ccccc21 [CB7732524]
viability score (0-1) relative to DMSO controls (L1 C. briggsae (AF16); 2 µM): 1.000
viability score (0-1) relative to DMSO controls (L1 C. briggsae (AF16); 3.9 µM): 1.000
viability score (0-1) relative to DMSO controls (L1 C. briggsae (AF16); 7.8 µM): 1.000
viability score (0-1) relative to DMSO controls (L1 C. briggsae (AF16); 15.6 µM): 1.000
viability score (0-1) relative to DMSO controls (L1 C. briggsae (AF16); 31.3 µM): 0.799
viability score (0-1) relative to DMSO controls (L1 C. briggsae (AF16); 62.5 µM): 0.033
viability score (0-1) relative to DMSO controls (L1 C. briggsae (AF16); 125 µM): 0.011
viability score (0-1) relative to DMSO controls (L1 C. briggsae (AF16); 250 µM): 0.0064
viability score (0-1) relative to DMSO controls (L1 P. pacificus (PS312); 2 µM): 1.000
viability score (0-1) relative to DMSO controls (L1 P. pacificus (PS312); 3.9 µM): 1.000
viability score (0-1) relative to DMSO controls (L1 P. pacificus (PS312); 7.8 µM): 1.000
viability score (0-1) relative to DMSO controls (L1 P. pacificus (PS312); 15.6 µM): 1.000
viability score (0-1) relative to DMSO controls (L1 P. pacificus (PS312); 31.3 µM): 0.022
viability score (0-1) relative to DMSO controls (L1 P. pacificus (PS312); 62.5 µM): 0.013
viability score (0-1) relative to DMSO controls (L1 P. pacificus (PS312); 125 µM): 0.018
viability score (0-1) relative to DMSO controls (L1 P. pacificus (PS312); 250 µM): 0.015

Brc1ccccc1OCCCCn1cnc2ccccc21 [Compound 7924576]
Relative Motility (L1 wild-type C. elegans; 50 μM, […], worm motility 3 hours after the removal of KCN (endpoint), relative to DMSO controls, single biological replicate): 0.075
C. elegans KCN Survival (L1 wild-type C. elegans; Dose 0.2 µM, mean of at least three biological replicates): 0.973
viability at 2 days, 12.5 µM (in vitro): 97.3%
activity at 37.5 µM ([1]; Dose 37.5 µM, read-out: C. elegans mitochondrial complex I activity): 2.65%
B. taurus: C. elegans IC50 Fold Change (Complex I IC50 ~Fold Change) ([2]; heart mitochondria): 2.65
Complex I IC50 ~Fold Change ([2]; heart mitochondria): 2.65
IC50 Fold change ([2]; heart mitochondria): 2.65

CC(C)(C)c1ccc(CCOc2ncnc3ccccc23)cc1 [Fenazaquin, reference compound]
KCN survival assay value relative to DMSO control, Mean (L1 wild-type C. elegans; dose 0.2 µM, […]): 0.996
KCN survival assay value relative to DMSO control, Mean (L1 wild-type C. elegans; dose 0.4 µM, […]): 0.698
KCN survival assay value relative to DMSO control, Mean (L1 wild-type C. elegans; dose 0.8 µM, […]): 0.289
KCN survival assay value relative to DMSO control, Mean (L1 wild-type C. elegans; dose 1.6 µM, […]): 0.082
KCN survival assay value relative to DMSO control, Mean (L1 wild-type C. elegans; dose 3.1 µM, […]): 0.0014
KCN survival assay value relative to DMSO control, Mean (L1 wild-type C. elegans; dose 6.3 µM, […]): 0.000
KCN survival assay value relative to DMSO control, individual replicate (L1 wild-type C. elegans; dose 6.3 µM, […]): 0.000
KCN survival assay value relative to DMSO control, Mean (L1 wild-type C. elegans; dose 12.5 µM, […]): 0.000
KCN survival assay value relative to DMSO control, individual replicate (L1 wild-type C. elegans; dose 12.5 µM, […]): 0.000
KCN survival assay value relative to DMSO control, Mean (L1 wild-type C. elegans; dose 25 µM, […]): 0.000
KCN survival assay value relative to DMSO control, individual replicate (L1 wild-type C. elegans; dose 25 µM, […]): 0.000
KCN survival assay value relative to DMSO control, Mean (L1 wild-type C. elegans; dose 50 µM, […]): 0.000
KCN survival assay value relative to DMSO control, individual replicate (L1 wild-type C. elegans; dose 50 µM, […]): 0.000
KCN survival assay value relative to DMSO control, Mean (L1 wild-type C. elegans; dose 100 µM, […]): 0.0016
M. musculus: C. elegans IC50 Fold Change [3]: 5.0
in vitro complex I activity relative to solvent control, individual replicate ([1]; dose 0.0001 µM): 87.816% and 89.750% and 92.618% and 90.086% and 96.070% and 109.239%
in vitro complex I activity relative to solvent control, individual replicate ([1]; dose 0.0005 µM): 89.701% and 81.002% and 81.804% and 90.491% and 91.484% and 103.606%
in vitro complex I activity relative to solvent control, individual replicate ([1]; dose 0.001 µM): 78.976% and 77.909% and 82.564% and 82.306% and 93.040%
in vitro complex I activity relative to solvent control, individual replicate ([1]; dose 0.0025 µM): 58.940% and 63.076% and 61.159% and 62.658% and 70.496%
in vitro complex I activity relative to solvent control, individual replicate ([1]; dose 0.005 µM): 42.842% and 44.309% and 45.411% and 42.722% and 34.893%
in vitro complex I activity relative to solvent control, individual replicate ([1]; dose 0.013 µM): 23.550% and 27.353% and 27.574% and 18.988% and 20.774%
in vitro complex I activity relative to solvent control, individual replicate ([1]; dose 0.025 µM): 16.646% and 10.417% and 16.067% and 16.398% and 5.080% and 10.303%
in vitro complex I activity relative to solvent control, individual replicate ([1]; dose 0.063 µM): 5.065% and 2.518% and 8.644% and 7.543% and 1.518% and 7.151%
in vitro complex I activity relative to solvent control, individual replicate ([1]; dose 0.125 µM): 0.729% and 0.000% and 4.279% and 4.891% and 2.074% and 3.228%
in vitro complex I activity relative to solvent control, individual replicate ([1]; dose 0.313 µM): 0.000% and 4.527% and 1.352% and 0.772% and 3.633%
in vitro complex I activity relative to solvent control, individual replicate ([1]; dose 0.625 µM): 5.097% and 1.288% and 0.000% and 2.023% and 4.656%
in vitro complex I activity relative to solvent control, individual replicate ([1]; dose 1.5 µM): 2.783% and 1.576% and 0.000% and 3.503% and 3.624%
in vitro complex I activity relative to solvent control, individual replicate ([1]; dose 3 µM): 2.117% and 0.219% and 0.000% and 1.465% and 5.101%
in vitro complex I activity relative to solvent control, individual replicate ([1]; dose 7.5 µM): 1.752% and 1.384% and 0.100% and 0.207% and 0.000% and 5.893%
in vitro complex I activity relative to solvent control, individual replicate ([1]; dose 15 µM): 2.173% and 2.316% and 0.000% and 0.653% and 4.013%
in vitro complex I activity relative to solvent control, individual replicate ([1]; dose 37.5 µM): 0.000% and 0.877% and 0.746% and 2.216% and 7.314%
in vitro complex I activity relative to solvent control, individual replicate ([1]; dose 75 µM): 3.481% and 2.659% and 1.359% and 4.169% and 0.000% and 7.148%
B. taurus: C. elegans IC50 Fold Change (Complex I IC50 ~Fold Change) ([2]; heart mitochondria): 5.7

COc1ccc(Cc2nccc3cc(OC)c(OC)cc23)cc1OC [Papaverine, reference compound]
percent (%) in vitro complex I activity relative to solvent control ([3]; 0.125 µM): 94.907% and 90.711% and 93.003%
percent (%) in vitro complex I activity relative to solvent control ([3]; 0.313 µM): 90.141% and 92.770% and 87.288%
percent (%) in vitro complex I activity relative to solvent control ([3]; 0.625 µM): 89.892% and 88.846% and 87.339%
percent (%) in vitro complex I activity relative to solvent control ([3]; 1.5 µM): 79.624% and 76.357% and 79.555%
percent (%) in vitro complex I activity relative to solvent control ([3]; 3 µM): 64.060% and 60.591% and 64.935%
percent (%) in vitro complex I activity relative to solvent control ([3]; 7.5 µM): 37.124% and 26.838% and 34.573%
percent (%) in vitro complex I activity relative to solvent control ([3]; 15 µM): 19.495% and 10.432% and 12.487%
percent (%) in vitro complex I activity relative to solvent control ([3]; 37.5 µM): 4.721% and 7.548% and 0.380% and 4.520%
percent (%) in vitro complex I activity relative to solvent control ([3]; 75 µM): 2.064% and 3.004% and 0.000% and 0.416%
M. musculus: C. elegans IC50 Fold Change [3]: 1.1
percent (%) in vitro complex I activity relative to solvent control ([1]; 0.125 µM): 94.687% and 82.605% and 109.027%
percent (%) in vitro complex I activity relative to solvent control ([1]; 0.125 µM, listed as papaverine): 96.440%
percent (%) in vitro complex I activity relative to solvent control ([1]; 0.313 µM): 83.609% and 89.316%
percent (%) in vitro complex I activity relative to solvent control ([1]; 0.313 µM, listed as papaverine): 91.207%
percent (%) in vitro complex I activity relative to solvent control ([1]; 1.5 µM): 86.357% and 77.276%
percent (%) in vitro complex I activity relative to solvent control ([1]; 1.5 µM, listed as papaverine): 82.039%
percent (%) in vitro complex I activity relative to solvent control ([1]; 3 µM): 61.202% and 62.914%
percent (%) in vitro complex I activity relative to solvent control ([1]; 3 µM, listed as papaverine): 63.720%
percent (%) in vitro complex I activity relative to solvent control ([1]; 7.5 µM): 36.553% and 36.203%
percent (%) in vitro complex I activity relative to solvent control ([1]; 7.5 µM, listed as papaverine): 31.827%
percent (%) in vitro complex I activity relative to solvent control ([1]; 15 µM): 14.878% and 34.729% and 23.907%
percent (%) in vitro complex I activity relative to solvent control ([1]; 15 µM, listed as papaverine): 14.841%
percent (%) in vitro complex I activity relative to solvent control ([1]; 37.5 µM): 1.550% and 14.338% and 5.935%
percent (%) in vitro complex I activity relative to solvent control ([1]; 37.5 µM, listed as papaverine): 5.926%
percent (%) in vitro complex I activity relative to solvent control ([1]; 75 µM): 0.000% and 16.770% and 11.020%
percent (%) in vitro complex I activity relative to solvent control ([1]; 75 µM, listed as papaverine): 2.169%
percent (%) in vitro complex I activity relative to solvent control ([2]; 0.125 µM): 95.707% and 93.819%
percent (%) in vitro complex I activity relative to solvent control ([2]; 0.313 µM): 93.411% and 96.318%
percent (%) in vitro complex I activity relative to solvent control ([2]; 0.625 µM): 85.649% and 91.371%
percent (%) in vitro complex I activity relative to solvent control ([2]; 1.5 µM): 81.759% and 81.062%
percent (%) in vitro complex I activity relative to solvent control ([2]; 3 µM): 79.268% and 83.993% and 77.320%
percent (%) in vitro complex I activity relative to solvent control ([2]; 15 µM): 31.763% and 38.614% and 35.232%
percent (%) in vitro complex I activity relative to solvent control ([2]; 37.5 µM): 13.885% and 17.467% and 14.372%
percent (%) in vitro complex I activity relative to solvent control ([2]; 75 µM): 9.851% and 5.127%
B. taurus: C. elegans IC50 Fold Change (Complex I IC50 ~Fold Change) ([2]; heart mitochondria): 1.9
